Experiment [1] deals with Jurkat cells transfected with A2K^b cDNA. The experiment is described as follows: In vitro killing assay with CTL from ESO 9V-immunized mice. In kind it is cell-based.
Experiment [2] has as its system 1G4 CTL clone. The settings on record: substitution of cysteine to valine at position 165; cited from earlier work.
For experiment [3], the system named is 1G4 CTL clone with peptide-pulsed T2 target cells. The class given is cell-based. The settings on record: 30 min at 37°C.
Experiment [4] shares this test system. The experiment is described as follows: Live cell video microscopy of CTL lytic granule polarization. The settings on record: T2 cells pulsed with 1 μM peptide. In kind it is cell-based.

Regarding SLLMWITQV [ESO 9V], the “lysis of peptide-loaded target cells by CTL from ESO 9V-immunized mice” value in experiment [1] is given as “as well as target cells loaded with the ESO 9V analogue”. Further, in experiment [2], the “ability to sensitize target cells for killing by the 1G4 CTL clone” value is given as “enhanced its ability to sensitize target cells for killing by the 1G4 CTL clone”. For the same sequence, the granule polarization result in experiment [3] was “granule polarization is much more efficient”. In experiment [4], the “rate of lytic granule polarization” value is on record as “granule polarization is rapid”. For the same sequence, the “time from initial contact to granule polarization at the synapse” value in experiment [4] (1 h at 37°C, single CTL followed) is on record as 4 min.

(Values after paper PMC2213140 (The Journal of Experimental Medicine, 2005).)
